Results as given in patent US20070037194A1, “Allelic variation in the serotonin transporter (SERT) as an indicator of autism” (priority 2005, published 2007).

System: SERT Ala56
Assay type: cell-based, human
Method: FIGS. 3A-B. SERT is refractory to regulation through PKG and p38 MAP kinase signaling pathways. […] Homozygous Ala56 cells (10^6/tube) were preincubated for various times at 37° C. with 10 μM 8BrcGMP prior to [^3H]5-HT transport assays. […]. Findings were replicated with identical results in an additional line for each genotype.
Functional Analysis of Gly56Ala Activity and Regulation. EBV-transformed lymphocyte cell lines from AGRE or Tufts/Vanderbilt autism families carrying either the Gly56 or 56Ala alleles were obtained from the NIMH Human Genetics Initiative Repository (www.nimhgenetics.org/) at Rutgers University. Lymphocytes were cultured in suspension in RPMI 1640 medium (supplemented with 15% fetal bovine serum, 2 mM L-glutamine, 100 units/ml penicillin, and 100 μg/ml streptomycin) at 37° C. in a humidified incubator at 5% CO2 prior to assay. Lymphocytes were pelleted at 1500 rpm, 5 min and washed with KRH assay buffer. […] After a 5-min incubation with [^3H]5-HT (20 nM) at 37° C., uptake assays were terminated by immersion on ice, and uptake in pelleted, 1% SDS-extracted cells quantitated by scintillation spectrometry. Specific 5-HT uptake was determined by subtracting the amount of [^3H]5-HT accumulated in the presence of 10 μM paroxetine (SmithKline Beecham). […]

SMILES: COc1ccc(C[C@H]2NC[C@H](O)[C@H]2OC(C)=O)cc1 [anisomycin]
- sensitivity of SERT Ala56 [3H]5-HT transport to the p38 MAPK activator anisomycin: lacks sensitivity
